Laboratory results reported in BindingDB's records for PubMed 6655559 (University of California, 1983).

Chains of the proteins cited; added tags and fusions are not shown.
UniProt G1T1Q0, whole entry: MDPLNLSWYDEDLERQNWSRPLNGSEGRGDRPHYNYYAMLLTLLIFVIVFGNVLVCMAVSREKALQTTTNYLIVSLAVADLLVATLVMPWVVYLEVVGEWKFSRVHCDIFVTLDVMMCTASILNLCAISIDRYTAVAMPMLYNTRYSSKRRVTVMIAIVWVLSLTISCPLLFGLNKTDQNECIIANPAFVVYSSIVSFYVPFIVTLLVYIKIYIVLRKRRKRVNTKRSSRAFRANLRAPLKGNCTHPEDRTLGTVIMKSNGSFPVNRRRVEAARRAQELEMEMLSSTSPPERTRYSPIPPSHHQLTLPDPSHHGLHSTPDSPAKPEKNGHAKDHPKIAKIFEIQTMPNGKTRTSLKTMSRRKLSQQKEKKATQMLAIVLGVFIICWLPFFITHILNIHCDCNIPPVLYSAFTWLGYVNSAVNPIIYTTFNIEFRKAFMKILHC

Biological target: D(2) dopamine receptor (Oryctolagus cuniculus, UniProt G1T1Q0)

Ki: 1.2 µM
SMILES: CCN1CCCC1CNC(=O)c1cc(S(N)(=O)=O)ccc1OC (stereo unspecified) [N-[(1-ethylpyrrolidin-2-yl)methyl]-2-methoxy-5-sulfamoylbenzamide]
